Measurements reported in PubChem BioAssay AID488924 (Johns Hopkins Ion Channel Center, 2010).
Only a part is listed here, and it is no random draw. Activity calls are given as the source filed them.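 Rule for the calls: active = membrane potential signal moves up or down beyond 5 SD from buffer-only wells, on both duplicate plates; inactive = the rest.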

Test: parental HEK293 membrane potential modulation, confirmation, counter-screen for TRPC6 modulator project, cell-based (AID 488924)
Conditions: parental HEK293, membrane potential dye fluorescence; at 10 µM

Row | Compound | membrane potential signal change
1 | O=C(OC1CN2CCC1CC2)C12CC3CC(CC(C3)C1)C2 (stereo unspecified) | active: 102%
